From paper PMC7360964, “Auto‐inhibition of Mif2/CENP‐C ensures centromere‐dependent kinetochore assembly in budding yeast” (The EMBO Journal, 2020)

Legend:
MN = target: T1, MN (Saccharomyces cerevisiae, UniProt P39731+P47149); experiment: Isothermal titration calorimetry (ITC) with MN; type: binding, budding yeast (S. cerevisiae); details: summary of FP and ITC assays
T1 construct: made in house; host or cells: E. coli BL21 (DE3)
T1 sequence (P39731 1-289): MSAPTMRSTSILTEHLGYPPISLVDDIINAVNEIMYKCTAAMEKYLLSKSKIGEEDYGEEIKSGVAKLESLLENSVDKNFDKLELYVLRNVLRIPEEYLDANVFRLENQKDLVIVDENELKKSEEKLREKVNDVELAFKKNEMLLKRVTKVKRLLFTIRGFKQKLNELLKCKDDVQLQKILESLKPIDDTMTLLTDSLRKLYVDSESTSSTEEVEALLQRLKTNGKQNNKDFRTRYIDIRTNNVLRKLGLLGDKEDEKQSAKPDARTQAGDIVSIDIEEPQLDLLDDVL
T1 sequence (P47149 1-201): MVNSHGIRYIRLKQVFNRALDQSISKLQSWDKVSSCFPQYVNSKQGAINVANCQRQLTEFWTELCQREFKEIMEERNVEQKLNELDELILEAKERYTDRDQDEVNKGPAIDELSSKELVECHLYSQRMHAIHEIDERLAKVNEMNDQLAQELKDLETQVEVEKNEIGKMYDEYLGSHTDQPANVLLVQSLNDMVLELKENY
Excerpt: Figure 5 The Mif2 N‐terminus is prevented from high‐affinity Mtw1c binding in the full‐length molecule • Co‐purification of Strep‐Mtw1c through Flag‐Mif2 after co‐expression in insect cells. Proteins were detected by Western blotting using their respective tags. • Western blotting of elution fractions from an SEC experiment of Mif2‐wt or Mif2^Ame1‐N swap in the absence (upper panel) or presence (lower panel) of Mtw1c. • ITC analysis of Mif2^1‐41 or Ame1^1‐20 binding to MN. Experiments were performed 3 or 4 times, respectively. One representative binding curve is shown, whereas the KD value represents the average of all experiments. • Cross‐link (XL) MS analysis of the Mif2wt protein in isolation or bound to Cse4n using the cross‐linker Bis[sulfosuccinimidyl] glutarate. Mif2wt alone or in combination with Cse4n was subjected to analytical size‐exclusion chromatography at 10 μM concentration. The corresponding Coomassie‐stained SDS–PAGE gels of Mif2‐wt alone or in combination with Cse4n are shown. Fractions used for cross‐linking are highlighted. […]
The binding constant of Ame1 could only be indirectly measured in the FP competition assay, as labeling of Ame1 N‐terminal peptides rendered them insoluble. We therefore directly determined binding affinities of Mif2 and Ame1 N‐terminal peptides to MN using isothermal titration calorimetry (ITC). […]

[1] = target: T2, Mtw1‐Nnf1 heterodimer (MN) (Saccharomyces cerevisiae, UniProt P39731+P47149); experiment: FP competition of FITC-Mif2 1-41/MN by unlabeled Ame1 peptide; type: binding, budding yeast (S. cerevisiae); details: FITC-Mif2 and MN pre-incubated at EC50, unlabeled Ame1 peptide
T2 construct: made in house; host or cells: E. coli BL21 (DE3)
T2 sequence (P39731 1-289): T1 sequence (P39731 1-289)
T2 sequence (P47149 1-201): T1 sequence (P47149 1-201)

[2] = target: T2, Mtw1‐Nnf1 heterodimer (MN); experiment: GST pulldown (solid-phase) competition: MN binding to GST-Mif2 1-41 or GST-Ame1 1-30 with Ame1 1-20 peptide; set-up: species or system budding yeast (S. cerevisiae)

dissociation constants for Mtw1 constructs (MN): low micromolar range | competition of Mif2-N binding to MN, FP [1]: effective competition | competition with GST-Ame1N for MN binding ([2]; free Ame1 peptide, Fig 2A lane 2 versus 3): not very efficiently competing
SMILES: CSCC[C@H](N)C(=O)N[C@@H](CC(=O)O)C(=O)N[C@@H](CCCNC(=N)N)C(=O)N[C@@H](CC(=O)O)C(=O)N[C@H](C(=O)N[C@@H](CCCCN)C(=O)N[C@@H](CC(C)C)C(=O)N[C@@H](C)C(=O)N[C@@H](Cc1ccccc1)C(=O)N[C@@H](CCCNC(=N)N)C(=O)N[C@@H](CC(C)C)C(=O)N[C@@H](CCCNC(=N)N)C(=O)NCC(=O)N[C@@H](CO)C(=O)N[C@@H](Cc1c[nH]cn1)C(=O)N[C@@H](CO)C(=O)N[C@@H](CCCNC(=N)N)C(=O)N[C@@H](CCCNC(=N)N)C(=O)N[C@H](C(=O)N[C@@H](CC(=O)O)C(=O)O)[C@@H](C)O)[C@@H](C)O [Ame1^1‐20]
inhibition of MN binding to GST-Mif2-N ([2]; bait 1 μM, MN 3 μM, increasing Ame1 1-20, 1 h at 4°C, pH 7.5, 200 mM NaCl, Coomassie SDS-PAGE): able to inhibit binding of MN to GST‐Mif2‐N in a dose‐dependent manner
